From BindingDB's records for doi:10.1016/j.bmc.2007.06.041 (Seoul National University, 2007)

Sequences of proteins named here, by UniProt entry; tags and fusion partners are left off.
UniProt O35433, whole entry: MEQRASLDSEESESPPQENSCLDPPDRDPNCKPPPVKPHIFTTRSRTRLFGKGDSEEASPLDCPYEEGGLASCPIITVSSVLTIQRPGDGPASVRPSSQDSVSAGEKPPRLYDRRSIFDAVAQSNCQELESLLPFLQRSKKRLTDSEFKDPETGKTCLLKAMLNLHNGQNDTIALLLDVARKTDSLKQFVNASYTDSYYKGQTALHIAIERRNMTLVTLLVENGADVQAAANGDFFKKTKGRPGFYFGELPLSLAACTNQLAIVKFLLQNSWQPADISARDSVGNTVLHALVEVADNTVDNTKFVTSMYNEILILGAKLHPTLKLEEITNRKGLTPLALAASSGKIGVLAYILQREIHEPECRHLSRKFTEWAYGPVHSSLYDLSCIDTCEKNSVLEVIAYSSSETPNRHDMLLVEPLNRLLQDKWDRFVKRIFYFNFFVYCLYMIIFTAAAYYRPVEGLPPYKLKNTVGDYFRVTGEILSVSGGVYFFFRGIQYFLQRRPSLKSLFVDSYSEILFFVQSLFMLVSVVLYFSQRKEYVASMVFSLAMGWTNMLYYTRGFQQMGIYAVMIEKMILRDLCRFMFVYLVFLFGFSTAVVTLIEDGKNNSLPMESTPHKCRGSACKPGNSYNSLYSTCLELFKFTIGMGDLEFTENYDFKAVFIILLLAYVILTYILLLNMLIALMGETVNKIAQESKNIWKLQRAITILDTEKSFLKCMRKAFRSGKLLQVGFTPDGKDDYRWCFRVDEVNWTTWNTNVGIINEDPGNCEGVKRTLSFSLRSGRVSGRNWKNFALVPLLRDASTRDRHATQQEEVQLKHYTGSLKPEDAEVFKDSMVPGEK

Target: Transient receptor potential cation channel subfamily V member 1 (Rattus norvegicus, UniProt O35433)
Test: Competition Binding Assay and Inhibition of Ca2+ Uptake Assay
Details: pH 7.4; 37 °C
Protocol: Binding assay mixtures were set up and contained [3H] RTX, various concentrations of competing ligands, and rVR1-transfected CHO cells. Nonspecific binding was determined in the presence of 100 nM nonradioactive RTX. After the binding reaction, membrane-bound RTX was separated from the free by centrifugation, and the radioactivity was determined by scintillation counting. Equilibrium binding parameters (Ki, Bmax, and cooperativity) were determined by fitting the Hill equation to the measured values with the aid of the program Origin 6.0.

## CC(C)(C)c1ccc(CNC(=S)NCc2ccc(NS(C)(=O)=O)cc2)cc1 [3-[(4-tert-butylphenyl)methyl]-1-[(4-methanesulfonamidophenyl)methyl]thiourea]
  Ki: 54 nM
